The source of these data is patent EP4840863A1, “FLUORINE-CONTAINING PARTHENOLIDE DERIVATIVE, PREPARATION METHOD THEREFOR AND USE THEREOF” (dated 2026).

One data set has as its system PANC-1 Cells. The data set is described as follows: Anticancer activity test (CCK-8), PANC-1 cells. The note with it: 72 h, Table 1-1. On the procedure: (§1) Cells in logarithmic growth phase were digested, centrifuged, and counted; the cell suspension was adjusted to a concentration of 1500-3500 cells/well, and 95 µL was seeded into each well of a 96-well plate.
(§2) After continued overnight culture, drugs at different concentrations were added to the plate, with six replicate wells for each concentration. 10 µL of the drug was added to each well, followed by incubation for 72 h. Then, 10 µL of CCK-8 solution was added to each well (care should be taken to avoid generating bubbles in the wells, as they can affect the OD reading). After incubation in the incubator for 1-4 h, the OD value at 450 nm was measured using a microplate reader. The experiment to assess the effect of each drug on each cell line at different time points was repeated three times.
(§3) Data were processed using EXCEL software to calculate the inhibition rate at different concentrations, and SPSS was used to fit the IC50 value. EXCEL was used to calculate the mean and standard deviation of the three IC50 values. Inhibition rate % = {1 - (OD value of drug well - OD value of blank well) / (OD value of control well - OD value of blank well) } * 100%. Table 1-1 Activity of Compounds in Inhibiting Cancer Cells

Data set [1] can be described thus: Release of Compound 4 in buffer solution (HPLC). Conditions: 0.01 M HEPES buffer solution (pH=7.4), 37°C, 0-4 h. On the procedure:
Compound 4 was taken and prepared into a test solution of approximately 10 µg/mL using a 0.01 M HEPES buffer solution (pH=7.4). The solution was placed in a 37°C water bath for incubation. At 0 h, 0.5 h, 1 h, 2 h, and 4 h, an appropriate amount of Compound 4 was taken out. The concentrations of Compound 4 and its degradation products were analyzed by HPLC to investigate the release rate of Compound 4.

Another data set deals with Huh-7. In words: Anticancer activity test (CCK-8), Huh-7 cells. The note with it: 72 h, Table 1-1. On the procedure:
as §1, §2, §3

For orientation: IC50 means the point on the concentration scale where inhibition reaches its midpoint. A lower IC50 goes with inhibition by little substance. Take `CN(C)CC1C(=O)OC2C1CCC(CC(F)(F)F)=CCCC1(C)OC21` (centres unmarked) [Compound 4]: the values for the IC50 in the data set on PANC-1 Cells and in the data set with Huh-7 were 6.54 µM and 5.26 µM, respectively. Also, the “Release of Compound 4 in buffer solution” value in data set [1] was “can slowly release the active substance, Compound 1”.
`C=C1C(=O)OC2C1CCC(CC(F)(F)F)=CCCC1(C)OC21` (centres unmarked): the concentration for half-maximal inhibition (IC50) with PANC-1 Cells stood at 2.26 µM; in the data set on Huh-7 it was 1.89 µM.
